Measured values published in ChEMBL document CHEMBL3860087, “New Broad-Spectrum Antibacterial Amphiphilic Aminoglycosides Active against Resistant Bacteria: From Neamine Derivatives to Smaller Neosamine Analogues” (J Med Chem, 2016).

Tests used:
Escherichia coli = conditions: ATCC 25922
Staphylococcus aureus = conditions: 1

In the case of GENTAMICIN, the MIC (Escherichia coli) is reported as 0.5 µg/mL and the MIC (Staphylococcus aureus) is reported as 0.5 µg/mL.
